Molecular target: mAChR M4 (UniProt P08173)
Experiment: mAChR M4 cell-based functional assay (calcium mobilization, Fluo-4, FDSS)
Description: Chinese hamster ovary (CHO-K1) cells stably expressing rat (r)M1 were purchased from the American Type Culture Collection and cultured according to their indicated protocol. CHO cells stably expressing human (h)M2, hM3, and hM5 were described previously (Levey A I, et al., (1991) J Neurosci 11:3218-3226.); hM1 and hM4 cDNAs were purchased from Missouri S&T cDNA Resource; rM4 cDNA was provided by T. I. Bonner (National Institutes of Health, Bethesda, Md.). rM2 and rM3 were cloned from a rat brain cDNA library and sequence verified. hM1, rM2, rM3, hM4, and rM4 cDNAs were used to stably transfect CHO-K1 cells purchased from the American Type Culture Collection using Lipofectamine-2000. To make stable rM2, hM2, rM3, hM4, and rM4 cell lines for use in calcium mobilization assays, these cells also were stably transfected with a chimeric G-protein (Gqi5) (provided by B. R. Conklin, University of California, San Francisco) using Lipofectamine 2000. rM1, hM1, rM3, hM3, rM5, and hM5 cells were grown in Ham's F-12 medium containing 10% heat-inactivated fetal bovine serum (FBS), 20 mM HEPES, and 50 µg/mL G418 sulfate. rM2-Gqi5, hM2-Gqi5, and hM4-Gqi5 cells were grown in the same medium also containing 500 µg/mL Hygromycin B. Stable rM4-Gqi5 cells were grown in DMEM containing 10% heat-inactivated FBS, 20 mM HEPES, 400 µg/mL G418 sulfate, and 500 µg/mL Hygromycin B. […]
Calcium flux was measured using the Functional Drug Screening System (FDSS) 6000 (Hamamatsu Corporation, Tokyo, Japan) as an increase in the fluorescent static ratio. […] Agonist activity was analyzed as a concentration-dependent increase in calcium mobilization upon compound addition. Positive allosteric modulator activity was analyzed as a concentration-dependent increase in the EC20 acetylcholine response. Antagonist activity was analyzed as a concentration-dependent decrease in the EC80 acetylcholine response. […]

The chains behind the UniProt entries cited, without tags or fusion partners.
UniProt P08173, whole entry: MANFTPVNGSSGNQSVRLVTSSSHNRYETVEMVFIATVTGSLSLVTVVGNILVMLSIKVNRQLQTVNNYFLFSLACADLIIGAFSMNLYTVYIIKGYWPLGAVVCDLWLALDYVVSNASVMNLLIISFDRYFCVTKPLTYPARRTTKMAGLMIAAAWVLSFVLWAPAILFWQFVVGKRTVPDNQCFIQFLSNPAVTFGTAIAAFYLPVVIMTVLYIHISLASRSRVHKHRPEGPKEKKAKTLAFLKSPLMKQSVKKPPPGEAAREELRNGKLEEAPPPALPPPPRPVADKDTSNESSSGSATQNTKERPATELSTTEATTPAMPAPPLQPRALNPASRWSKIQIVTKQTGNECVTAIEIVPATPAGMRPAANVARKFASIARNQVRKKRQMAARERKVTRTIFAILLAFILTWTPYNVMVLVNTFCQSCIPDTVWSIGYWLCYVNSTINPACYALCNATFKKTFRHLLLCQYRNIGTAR

Cc1cc(C)c2c(n1)sc1c(NCC(C)C)nn(C)c12
Emax (%)* (% ACh maximum at 30 μM): 70% | pEC50 (positive allosteric modulator activity, EC20 acetylcholine response, CHO-K1 cells): 6.26 | EC50 (positive allosteric modulator activity: concentration-dependent increase in the EC20 acetylcholine response, CHO-K1 cells, >10 μM estimated for low potency (no plateau)): 550 nM
